# Measured affinities in a library of Ab-14 light chain variants

Target peptide (SARS-CoV-2 spike, HR2 region): PDVDLGDISGINAS

The variants keep the heavy chain, the linker and the frameworks of Ab-14 (scFv order VH, a (GGGGS)3 linker, VL).
VH: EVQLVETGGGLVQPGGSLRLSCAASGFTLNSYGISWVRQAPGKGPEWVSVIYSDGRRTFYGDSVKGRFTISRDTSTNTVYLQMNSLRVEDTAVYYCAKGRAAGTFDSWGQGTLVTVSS
VL: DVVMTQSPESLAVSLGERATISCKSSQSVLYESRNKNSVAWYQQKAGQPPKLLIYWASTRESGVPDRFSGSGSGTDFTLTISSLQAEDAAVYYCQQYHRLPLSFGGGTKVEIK

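Phage display of a naive human antibody library on the peptide gave the parent. AAYL50 was designed without a model: most single CDR substitutions and a random sample of double and triple ones. Affinity was read by AlphaSeq, a pooled yeast mating assay with surface-displayed partners. The frequency of each diploid, read from paired DNA barcodes, reflects how well the two displayed proteins bind. The ratio of observed to expected reads was calibrated, replicate by replicate, on BCL2-family standards whose Kd was known from biolayer interferometry. The assay was run in three technical replicates.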

Changes read parent residue, position, new residue, counted from the first residue of the VL shown. All variants listed here change S28 of the VL, counted from its first residue. Numbers give log10(Kd / nM), so 0 is 1 nM and 3 is 1 µM. Smaller is tighter. Averages over replicates are reported, and they cover detected replicates only. "n.d." means that the variant was in the library but no mating with the target was seen in that replicate; the authors take this as a sign of poor binding, and no number exists. Entries are sorted by rising average, undetected variants last. Three control strains display no target. For library AAYL50, 18% of the pairings with them gave a signal, with a median of 4.19 and one signal in twenty below 2.99, so weak values seen in few replicates may be background.

changes	log10 Kd, replicates	mean log10 Kd (nM)
S28D L30G S62K	0.70 0.84 0.74	0.76
S28N S62W R99H	0.92 0.96 0.83	0.90
S28Q	1.01 1.11 0.97	1.03
S28H Y97S L100Q	1.29 1.20 1.33	1.27
S28L H98L L102F	1.48 1.41 1.41	1.43
S28D L30Y N35S	1.37 1.49 1.62	1.49
S25D S28F	1.85 1.45 1.81	1.71
S28L N37S R99T	1.41 2.05 1.83	1.76
S28N E32V S38N	1.92 1.82 1.98	1.91
S25W Q27Y S28E	2.11 1.92 2.19	2.07
S28L Y31H	1.41 2.07 3.27	2.25
S28A V29P E32R	2.10 2.83 3.14	2.69
S26Y S28W	2.57 2.76 2.88	2.74
S28K W56C R99D	n.d. 2.94 n.d.	2.94
S28M P101I S103Y	3.67 3.08 3.10	3.28
K24Y S28C E61T	3.41 n.d. n.d.	3.41
S25F S28P L100S	3.63 n.d. n.d.	3.63
S28V K36Q Q95R	3.65 n.d. n.d.	3.65
S28Q T59N Q96I	4.36 3.35 3.79	3.83
S28C N37V Q95S	n.d. n.d. 4.07	4.07
S28A V29T Q95W	n.d. 4.15 n.d.	4.15
S28P L30R	n.d. 3.04 5.56	4.30
S28Q Y97F H98K	n.d. 4.32 n.d.	4.32
S28D R99P L100D	n.d. 4.33 n.d.	4.33
S28I E32A S58E	4.98 n.d. 3.84	4.41
S28I A40P T59D	4.88 n.d. n.d.	4.88
S28R V39F L100W	5.54 n.d. n.d.	5.54
S28P S58I Y97W	n.d. n.d. n.d.	n.d.
S28E A57P Q96L	n.d. n.d. n.d.	n.d.
Q27T S28E P101D	n.d. n.d. n.d.	n.d.
S28A A40Y Q96T	n.d. n.d. n.d.	n.d.
S26V S28M T59D	n.d. n.d. n.d.	n.d.
S28Q A40M R60F	n.d. n.d. n.d.	n.d.
S28R W56T S103L	n.d. n.d. n.d.	n.d.
S28R R60H S103H	n.d. n.d. n.d.	n.d.
S28A A40I	n.d. n.d. n.d.	n.d.
S28W N37H P101K	n.d. n.d. n.d.	n.d.
S26T S28F R99D	n.d. n.d. n.d.	n.d.
S28L V39M R60T	n.d. n.d. n.d.	n.d.
S28I N35W	n.d. n.d. n.d.	n.d.
S28T A57N Q95I	n.d. n.d. n.d.	n.d.
Q27C S28F A40N	n.d. n.d. n.d.	n.d.
Q27R S28R Y97R	n.d. n.d. n.d.	n.d.

A selection of 4 entries from above:

{"changes": "S28P S58I Y97W", "log10 Kd, replicates": "n.d. n.d. n.d.", "mean log10 Kd (nM)": "n.d."}
{"changes": "S28L N37S R99T", "log10 Kd, replicates": "1.41 2.05 1.83", "mean log10 Kd (nM)": "1.76"}
{"changes": "S28Q T59N Q96I", "log10 Kd, replicates": "4.36 3.35 3.79", "mean log10 Kd (nM)": "3.83"}
{"changes": "S28Q A40M R60F", "log10 Kd, replicates": "n.d. n.d. n.d.", "mean log10 Kd (nM)": "n.d."}

From the AlphaSeq antibody data of Engelhart et al. 2022 (doi:10.1038/s41597-022-01779-4), copy in the FLAb collection.